{"sequences": {"note": "By UniProt entry, the sequences of proteins in these tests, tags left out.", "UniProt P15692, whole entry": "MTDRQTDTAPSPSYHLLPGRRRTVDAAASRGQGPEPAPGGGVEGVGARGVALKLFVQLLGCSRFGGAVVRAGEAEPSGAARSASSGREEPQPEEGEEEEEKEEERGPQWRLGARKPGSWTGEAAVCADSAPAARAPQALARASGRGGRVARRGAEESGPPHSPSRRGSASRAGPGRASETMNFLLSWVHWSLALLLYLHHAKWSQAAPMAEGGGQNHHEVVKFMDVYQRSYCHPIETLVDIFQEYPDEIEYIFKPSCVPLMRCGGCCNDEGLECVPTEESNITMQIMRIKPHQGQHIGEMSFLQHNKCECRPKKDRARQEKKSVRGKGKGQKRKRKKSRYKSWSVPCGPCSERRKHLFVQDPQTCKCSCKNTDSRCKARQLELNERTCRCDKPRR"}, "source": "paper PMC3338918", "origin": "cited, not measured here", "target": "VEGF-A (Homo sapiens) (UniProt P15692)", "experiment": "SPR", "settings": "cited from earlier work", "data": [{"substance": "ranibizumab Fab", "values": [{"measurement": "Kd", "value": "< 0.14", "unit": "nM"}]}]}
